Experimental findings from patent publication US20150133512A1, “N-ARYLTRIAZOLE COMPOUNDS AS LPAR ANTAGONISTS” (Hoffmann-La Roche Inc,, priority 2012, published 2015) are described below.

The chains behind the UniProt entries cited, without tags or fusion partners. Where a name states a change or a piece, a line headed by the entry shows the natural chain unless it says otherwise.
UniProt Q92633: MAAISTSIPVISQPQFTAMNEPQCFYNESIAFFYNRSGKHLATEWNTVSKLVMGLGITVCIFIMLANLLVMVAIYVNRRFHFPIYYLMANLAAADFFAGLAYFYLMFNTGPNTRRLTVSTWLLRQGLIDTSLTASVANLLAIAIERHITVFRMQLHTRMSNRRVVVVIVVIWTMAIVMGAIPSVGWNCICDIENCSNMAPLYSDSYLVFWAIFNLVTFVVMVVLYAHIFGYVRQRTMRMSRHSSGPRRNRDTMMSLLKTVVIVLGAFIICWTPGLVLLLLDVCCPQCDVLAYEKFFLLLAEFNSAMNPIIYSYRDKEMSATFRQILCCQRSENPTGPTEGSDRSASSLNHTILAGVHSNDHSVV

The assay deals with human recombinant LPA1 Lysophospholipid receptor (Homo sapiens, UniProt Q92633). Put plainly: Calcium flux assay using FLIPR, LPA1 antagonist activity. The assay is classed as cell-based. The following applies: ChemiScreen Calcium-optimized stable cell line; antagonist mode, inhibition of agonist-induced calcium flux. The protocol: Calcium Flux Assay Using Fluorometric Imaging Plate Reader (FLIPR)
Cell Culture Conditions: The ChemiScreen Calcium-optimized stable cell line containing the human recombinant LPA1 Lysophospholipid receptor was purchased from Chemicon International, Inc./Millipore. The cells were cultured in DMEM-high glucose supplemented with 10% fetal bovine serum, 2 mM glutamine, 100 U/mL penicillin/100 μg/mL streptomycin, 1× non-essential amino acids, 10 mM HEPES and 0.25 mg/mL Geneticin. Cells were harvested with trypsin-EDTA and counted using ViaCount reagent. The cell suspension volume was adjusted to 2.0×10^5 cells/mL with complete growth media. […]
After incubation, both the cell and “assay” plates were brought to the FLIPR and 20 μL of the diluted compounds were transferred to the cell plates by the FLIPR. Compound addition was monitored by FLIPR to detect any agonist activity of the compounds. […] During the assay, fluorescence readings were taken simultaneously from all 384 wells of the cell plate every 1.5 seconds. Five readings were taken to establish a stable baseline, then 20 μL of sample was rapidly (30 μL/sec) and simultaneously added to each well of the cell plate. The fluorescence was continuously monitored before, during and after sample addition for a total elapsed time of 100 seconds. Responses (increase in peak fluorescence) in each well following agonist addition was determined. […]
For orientation: A change in cytosolic calcium serves as a functional read-out for many receptors and channels.

In general, IC50 refers to the midpoint of a concentration-inhibition curve. For the molecule `Cc1nnn(-c2ccc(-c3ccc(C4(C(=O)O)CC4)cc3)cc2)c1NC(=O)O[C@H](C)c1ccccc1F` [Example 5, 1-(4′-{5-[(R)-1-(2-Fluoro-phenyl)-ethoxycarbonylamino]-4-methyl-[1,2,3]triazol-1-yl}-biphenyl-4-yl)-cyclopropanecarboxylic acid], the IC50 was found to be 35 nM.
